This is an account of results in BindingDB's records for doi:10.1124/mol.62.4.947 (National Cancer Institute-Bethesda, 2002).

Protein sequences, listed by entry. Tags and fused reporters are not part of them.
UniProt O35433, whole entry: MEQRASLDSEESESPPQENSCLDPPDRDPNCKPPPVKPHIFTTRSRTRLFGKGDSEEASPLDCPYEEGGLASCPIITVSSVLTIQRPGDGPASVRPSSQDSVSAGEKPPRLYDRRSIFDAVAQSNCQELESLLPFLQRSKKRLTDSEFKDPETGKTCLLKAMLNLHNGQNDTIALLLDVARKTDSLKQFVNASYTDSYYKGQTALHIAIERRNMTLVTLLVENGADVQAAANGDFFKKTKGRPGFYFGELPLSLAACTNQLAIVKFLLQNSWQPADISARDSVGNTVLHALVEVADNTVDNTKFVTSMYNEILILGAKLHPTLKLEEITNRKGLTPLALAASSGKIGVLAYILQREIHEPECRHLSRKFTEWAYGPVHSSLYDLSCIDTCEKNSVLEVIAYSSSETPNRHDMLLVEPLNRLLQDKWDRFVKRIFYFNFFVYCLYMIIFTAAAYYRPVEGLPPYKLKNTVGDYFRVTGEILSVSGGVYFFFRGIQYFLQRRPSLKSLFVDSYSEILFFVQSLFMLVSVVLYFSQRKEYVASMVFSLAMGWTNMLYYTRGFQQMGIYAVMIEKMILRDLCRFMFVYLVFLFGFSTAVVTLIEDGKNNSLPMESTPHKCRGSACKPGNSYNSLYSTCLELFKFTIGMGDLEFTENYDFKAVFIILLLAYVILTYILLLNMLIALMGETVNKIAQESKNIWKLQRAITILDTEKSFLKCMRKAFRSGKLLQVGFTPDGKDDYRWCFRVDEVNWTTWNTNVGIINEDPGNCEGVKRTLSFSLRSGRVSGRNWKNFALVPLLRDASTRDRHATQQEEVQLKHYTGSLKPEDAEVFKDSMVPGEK

The target of this assay is Transient receptor potential cation channel subfamily V member 1 (Rattus norvegicus, UniProt O35433).

`CC(C)(C)c1ccc(CNC(=S)NCc2ccc(NS(C)(=O)=O)cc2)cc1` [3-[(4-tert-butylphenyl)methyl]-1-[(4-methanesulfonamidophenyl)methyl]thiourea]: the Ki – broadly, the dissociation constant of the complex between target and ligand, obtained from inhibition or displacement – was determined as 53.9 nM.
